Where a chain is given by its changes, count along the chain named. Active and inactive are the calls of the source. The calls are words filed in the database; no cut-off is given here.

Test [1] addresses T1, Lysosomal acid glucosylceramidase (Homo sapiens) (UniProt P04062).
T1 sequence (whole entry): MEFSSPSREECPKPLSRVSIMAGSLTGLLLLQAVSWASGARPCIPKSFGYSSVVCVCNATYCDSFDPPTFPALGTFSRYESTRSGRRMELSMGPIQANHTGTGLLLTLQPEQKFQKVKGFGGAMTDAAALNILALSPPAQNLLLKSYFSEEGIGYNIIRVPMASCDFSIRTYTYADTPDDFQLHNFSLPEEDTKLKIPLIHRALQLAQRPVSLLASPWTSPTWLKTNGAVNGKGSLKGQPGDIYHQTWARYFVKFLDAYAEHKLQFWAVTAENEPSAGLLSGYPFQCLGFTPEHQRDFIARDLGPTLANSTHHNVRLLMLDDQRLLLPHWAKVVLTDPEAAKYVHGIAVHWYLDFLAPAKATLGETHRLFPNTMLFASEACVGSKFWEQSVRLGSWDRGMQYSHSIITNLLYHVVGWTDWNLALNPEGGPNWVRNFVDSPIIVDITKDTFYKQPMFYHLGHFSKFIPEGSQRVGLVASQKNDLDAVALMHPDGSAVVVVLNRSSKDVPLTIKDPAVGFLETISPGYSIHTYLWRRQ
Description: Inhibition of glucocerebrosidase activity in human wild-type fibroblasts at 40 uM by pulse-chase assay.

Test [2] relates to T2, Lysosomal acid glucosylceramidase (Homo sapiens), P04062 [N409S].
T2 sequence (whole entry): T1 sequence (whole entry) with N409S
Description: Inhibition of glucocerebrosidase activity in human N370S mutant cells at 40 uM by pulse-chase assay. Type of test: cell-based.

Turning to `CCc1nnc(NC(=O)c2ccc(NS(=O)(=O)c3ccccc3)cc2)s1`, the result in test [1] and in test [2] was Active.

(Values after ChEMBL document CHEMBL1145512, “Three classes of glucocerebrosidase inhibitors identified by quantitative high-throughput screening are chaperone leads for Gaucher disease” (Proc Natl Acad Sci U S A, 2007).)
